Source: PubChem BioAssay (NCI)
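Interpolation was linear, between the two tested concentrations surrounding the appropriate level; five concentrations were tested over 48 hours in 96-well plates. The concentration for full growth arrest is given as TGI.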

What was measured:
Assay in all cases: NCI-60 cell line screen, 48 h
RPMI-8226 leukemia = tested on: RPMI-8226 leukemia
COLO 205 colon = tested on: COLO 205 colon
HOP-62 NSCLC = tested on: HOP-62 NSCLC
SNB-19 CNS = tested on: SNB-19 CNS
CCRF-CEM leukemia = tested on: CCRF-CEM leukemia
HL-60(TB) leukemia = tested on: HL-60(TB) leukemia
DU-145 prostate = tested on: DU-145 prostate
786-0 renal = tested on: 786-0 renal
OVCAR-5 ovarian = tested on: OVCAR-5 ovarian
T-47D breast = tested on: T-47D breast
HCC-2998 colon = tested on: HCC-2998 colon
MALME-3M melanoma = tested on: MALME-3M melanoma
U251 CNS = tested on: U251 CNS
UO-31 renal = tested on: UO-31 renal
SK-OV-3 ovarian = tested on: SK-OV-3 ovarian
HCT-116 colon = tested on: HCT-116 colon
SK-MEL-2 melanoma = tested on: SK-MEL-2 melanoma
NCI/ADR-RES ovarian = tested on: NCI/ADR-RES ovarian
OVCAR-4 ovarian = tested on: OVCAR-4 ovarian
IGROV1 ovarian = tested on: IGROV1 ovarian
MDA-MB-435 = tested on: MDA-MB-435
HOP-92 NSCLC = tested on: HOP-92 NSCLC
UACC-62 melanoma = tested on: UACC-62 melanoma
CAKI-1 renal = tested on: CAKI-1 renal
M14 melanoma = tested on: M14 melanoma
SR leukemia = tested on: SR leukemia
MOLT-4 leukemia = tested on: MOLT-4 leukemia
NCI-H460 lung = tested on: NCI-H460 lung
MCF7 breast = tested on: MCF7 breast
ACHN renal = tested on: ACHN renal
HS 578T breast = tested on: HS 578T breast
K-562 leukemia = tested on: K-562 leukemia

Measured: TGI

CN=C(/N=C1\N(C)C(C)(C)P(=O)(O)N1C)NC
> 100 µM: RPMI-8226 leukemia | COLO 205 colon | HOP-62 NSCLC | SNB-19 CNS | CCRF-CEM leukemia | HL-60(TB) leukemia | DU-145 prostate | 786-0 renal | OVCAR-5 ovarian | T-47D breast | HCC-2998 colon | MALME-3M melanoma | U251 CNS | UO-31 renal | SK-OV-3 ovarian | HCT-116 colon | SK-MEL-2 melanoma | NCI/ADR-RES ovarian | OVCAR-4 ovarian | IGROV1 ovarian | MDA-MB-435 | HOP-92 NSCLC | UACC-62 melanoma | CAKI-1 renal | M14 melanoma | SR leukemia | MOLT-4 leukemia | NCI-H460 lung | MCF7 breast | ACHN renal | HS 578T breast | K-562 leukemia
